Sequences of proteins named here, by UniProt entry; tags and fusion partners are left off.
UniProt P27338, whole entry: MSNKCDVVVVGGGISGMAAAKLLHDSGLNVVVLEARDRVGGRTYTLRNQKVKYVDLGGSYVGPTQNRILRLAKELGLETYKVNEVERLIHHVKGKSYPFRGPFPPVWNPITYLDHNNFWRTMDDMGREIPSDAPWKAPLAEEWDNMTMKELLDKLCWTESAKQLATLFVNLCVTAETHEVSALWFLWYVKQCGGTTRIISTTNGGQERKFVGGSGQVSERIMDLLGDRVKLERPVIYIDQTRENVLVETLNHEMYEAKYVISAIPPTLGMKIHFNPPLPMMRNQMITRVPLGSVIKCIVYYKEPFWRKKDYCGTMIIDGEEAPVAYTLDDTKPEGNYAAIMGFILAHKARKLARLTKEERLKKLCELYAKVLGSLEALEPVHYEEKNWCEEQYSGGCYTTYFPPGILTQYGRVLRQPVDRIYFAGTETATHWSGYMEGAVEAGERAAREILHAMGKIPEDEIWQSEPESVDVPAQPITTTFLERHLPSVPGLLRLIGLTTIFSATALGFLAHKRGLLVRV

According to ChEMBL document CHEMBL5725200, “(Hetero)aryl cyclopropylamine compounds as LSD1 inhibitors” (2016):

Target: Amine oxidase [flavin-containing] B (Homo sapiens, UniProt P27338)

With c1ccc([C@@H]2C[C@H]2NC2CCNCC2)cc1 the Ki was > 100 µM.
